Protein sequences, listed by entry. Tags and fused reporters are not part of them. Residues count along the entry.
UniProt Q9H7Z6, 125-458: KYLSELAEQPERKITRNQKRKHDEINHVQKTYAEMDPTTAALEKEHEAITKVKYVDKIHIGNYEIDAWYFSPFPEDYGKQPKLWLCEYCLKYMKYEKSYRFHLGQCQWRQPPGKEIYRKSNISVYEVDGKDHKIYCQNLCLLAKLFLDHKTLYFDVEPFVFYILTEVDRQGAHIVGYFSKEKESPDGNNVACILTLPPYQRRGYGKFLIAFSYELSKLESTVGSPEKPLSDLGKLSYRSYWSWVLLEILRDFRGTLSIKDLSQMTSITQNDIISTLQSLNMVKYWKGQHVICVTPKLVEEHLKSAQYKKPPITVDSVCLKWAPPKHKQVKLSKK

The first test has as its target Human MOF catalytic domain (residues 125-458) (human) (UniProt Q9H7Z6).
Turning to “H4K*16 histone peptide containing Orn at position 16 (H4 residues 13-27)”, the IC50 of inhibition of MOF-catalyzed acetylation of the H4K16 peptide (single point, 100 µM of each peptide, 1 h, 37 °C, MALDI-TOF MS; residual activity greater than 50%) is > 100 µM. With “H4K*16 histone peptide containing Dab at position 16 (H4 residues 13-27)”, the IC50 of inhibition of MOF-catalyzed acetylation of the H4K16 peptide (single point, 100 µM of each peptide, 1 h, 37 °C, MALDI-TOF MS; residual activity greater than 50%) was > 100 µM.

For “H4K*16 histone peptide containing h4K at position 16 (H4 residues 13-27)”, the IC50 of inhibition of MOF-catalyzed acetylation of the H4K16 peptide (single point, 100 µM of each peptide, 1 h, 37 °C, MALDI-TOF MS; residual activity greater than 50%) is > 100 µM.

For the next test the target is unchanged. This is another data set of the same source.
Turning to “H4hK16 histone peptide (H4 residues 13-27 with hLys at position 16)”, the Km^app of MOF-catalyzed acetylation (MALDI-TOF MS kinetics, steady state, saturating AcCoA, 37 °C, pH 7.4) amounted to 344 μM. Same read-out and setting: as for “H4h2K16 histone peptide (H4 residues 13-27 with h2K at position 16)”, the figure is 82.2 μM; as for “H4K16 histone peptide (H4 residues 13-27)”, 593 μM.
